Test results from ChEMBL document CHEMBL4616721, “Nitrogen-Walk Approach to Explore Bioisosteric Replacements in a Series of Potent A2B Adenosine Receptor Antagonists” (J Med Chem, 2020).

Chains of the proteins cited; added tags and fusions are not shown.
UniProt P0DMS8, whole entry: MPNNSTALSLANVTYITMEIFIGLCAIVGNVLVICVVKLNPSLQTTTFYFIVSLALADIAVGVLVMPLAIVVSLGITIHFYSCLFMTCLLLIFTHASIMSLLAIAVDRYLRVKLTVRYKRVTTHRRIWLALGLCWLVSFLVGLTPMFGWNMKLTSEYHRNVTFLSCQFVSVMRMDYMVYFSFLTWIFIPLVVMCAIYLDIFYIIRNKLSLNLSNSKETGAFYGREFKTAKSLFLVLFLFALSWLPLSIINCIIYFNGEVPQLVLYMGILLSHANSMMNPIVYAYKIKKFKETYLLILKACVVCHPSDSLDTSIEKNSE
UniProt P30542, whole entry: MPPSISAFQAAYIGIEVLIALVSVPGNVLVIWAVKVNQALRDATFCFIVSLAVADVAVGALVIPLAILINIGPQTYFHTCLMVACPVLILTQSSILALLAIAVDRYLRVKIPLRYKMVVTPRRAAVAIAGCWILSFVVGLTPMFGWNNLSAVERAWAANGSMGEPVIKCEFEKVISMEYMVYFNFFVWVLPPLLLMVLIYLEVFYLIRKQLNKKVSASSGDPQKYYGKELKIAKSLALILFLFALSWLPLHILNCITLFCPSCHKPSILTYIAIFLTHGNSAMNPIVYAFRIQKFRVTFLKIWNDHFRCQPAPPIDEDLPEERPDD

How the values were obtained:
Adenosine receptor A3 = Adenosine receptor A3 (Homo sapiens, UniProt P0DMS8); experiment: Displacement [3H]NECA from adenosine A3 receptor in human HeLa cell membranes at 1 uM incubated for 180 mins by scintillation counting method relative to control
Adenosine receptor A2a = Adenosine receptor A2a (Homo sapiens, UniProt P29274); experiment: Displacement [3H]ZM241385 from adenosine A2A receptor in human HeLa cell membranes at 1 uM incubated for 30 mins by scintillation counting method relative to control
Adenosine receptor A1 = Adenosine receptor A1 (Homo sapiens, UniProt P30542); experiment: Displacement [3H]DPCPX from human adenosine A1 receptor expressed in CHO cell membranes at 1 uM incubated for 60 mins by scintillation counting method relative to control

inhibition (Adenosine receptor A3)	inhibition (Adenosine receptor A2a)	inhibition (Adenosine receptor A1)	Compound
18%	20%	1%	CCOC(=O)C1=C(C)Nc2nc3ccccc3n2[C@@H]1c1cocn1
7%	11%	5%	CCOC(=O)C1=C(C)Nc2nc3ccccc3n2C1c1cocn1 (racemic)
6%	4%	3%	CCOC(=O)C1=C(C)Nc2nc3ccccc3n2[C@H]1c1cocn1
